Data reported in patent publication US20210361767A1, “RESCUING CANCER PATIENTS FROM RESISTANCE TO TREATMENT WITH INHIBITORS OF PD-1/PD-L1 INTERACTIONS” (Mayo Foundation for Medical Education and Research, priority 2018, published 2021).

System: CD8+ T cells
Assay: CD8+ T cell survival with recombinant PD-L1 (trypan blue)
Assay type: cell-based, human
Conditions: for CD8+ T cell survival: trypan blue, n=3, FIG. 5A; for cell death of CD8+ T cells: 24 hours
Procedure: To determine whether sPD-L1 affects antitumor immunity, CD8+ T cells were isolated from healthy volunteers (see, Frigola et al., Clin Cancer Res, 1(177):1915-1923, 2011, for basic experimental protocols) and cultured with PBS or increasing concentrations of recombinant PD-L1. Survival was measured by trypan blue staining (FIG. 5A).
Karpas-299 lymphoma cells producing sB7-H1 were cultured with an array of protease inhibitors. Supernatants from these cultures were isolated and analyzed for sB7H1 concentration by ELISA. Subsequently, activated human CD8+ T cells were cultured with recombinant sB7H1 protein and cell survival was measured at 24 hours. CD8+ T cells also were cultured with sB7H1-rich tumor cell line supernatants versus sB7H1-depleted supernatants over 48 hours in the presence of placebo, low dose (10 nM), or high dose (1 μM) anti-PD-1 antibody pembrolizumab, and cell survival was measured.

Substance: recombinant PD-L1: recombinant soluble PD-L1 (sB7-H1) protein added to CD8+ T cell cultures
- CD8+ T cell survival (5 μg/ml recombinant PD-L1 vs PBS, p<0.0001): significantly reduced
- CD8+ T cell survival (10 μg/ml recombinant PD-L1 vs PBS, p<0.001): significantly reduced
- cell death of CD8+ T cells (Example 3, exogenous sB7H1 at 5 μg/ml, p<0.0001): induced cell death
- cell death of CD8+ T cells (Example 3, exogenous sB7H1 at 10 μg/ml, p<0.0001): induced cell death
